Test results from article PMC12163485 (2025).

Biological target: T1, human OCT1 (hOCT1) (Homo sapiens, UniProt O15245)
T1 sequence (O15245 1-554): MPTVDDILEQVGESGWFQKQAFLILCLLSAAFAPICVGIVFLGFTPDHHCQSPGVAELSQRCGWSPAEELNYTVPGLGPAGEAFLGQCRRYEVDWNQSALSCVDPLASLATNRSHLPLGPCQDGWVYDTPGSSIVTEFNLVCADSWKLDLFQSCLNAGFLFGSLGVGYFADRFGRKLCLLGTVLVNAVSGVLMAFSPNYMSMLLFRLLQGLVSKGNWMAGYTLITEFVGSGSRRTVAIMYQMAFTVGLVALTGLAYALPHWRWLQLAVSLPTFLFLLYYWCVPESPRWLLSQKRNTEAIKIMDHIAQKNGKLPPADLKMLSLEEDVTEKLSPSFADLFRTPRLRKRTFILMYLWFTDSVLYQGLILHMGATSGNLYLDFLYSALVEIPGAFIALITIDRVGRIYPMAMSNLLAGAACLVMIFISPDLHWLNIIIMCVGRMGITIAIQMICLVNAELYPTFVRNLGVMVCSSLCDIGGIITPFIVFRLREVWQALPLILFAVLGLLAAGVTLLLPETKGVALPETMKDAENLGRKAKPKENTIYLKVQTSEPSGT
Assay: Transport kinetics (KM, vmax) of OCT1-mediated uptake, HEK293 cells overexpressing human OCT1
Format: in vitro ADME
Settings: mean ± SD

`CC(Cc1ccc(O)cc1)NCC(O)c1cc(O)cc(O)c1` (centres unmarked) [Fenoterol, fenoterol] was tested, and the vmax (substrate tested alone) was 44.4 ± 10.5 pmol x min^-1 x mg protein^-1 and the vmax (substrate tested in cocktail) was 43.9 ± 9.66 pmol x min^-1 x mg protein^-1.
